## Ab-14 light chain CDR variants: yeast mating affinities

The measurements come from Li et al. 2023 (doi:10.1038/s41467-023-39022-2) through the FLAb antibody collection.

The target is the same throughout: PDVDLGDISGINAS, from the HR2 region of SARS-CoV-2 spike.

Each scFv is VH, a 15-residue (Gly4Ser)3 linker, VL, as in the parent Ab-14, and differs from it in the CDRs of the light chain only.
VH: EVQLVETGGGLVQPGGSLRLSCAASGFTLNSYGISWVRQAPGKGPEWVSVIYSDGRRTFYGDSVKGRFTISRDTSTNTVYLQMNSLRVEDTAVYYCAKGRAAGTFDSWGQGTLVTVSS
VL: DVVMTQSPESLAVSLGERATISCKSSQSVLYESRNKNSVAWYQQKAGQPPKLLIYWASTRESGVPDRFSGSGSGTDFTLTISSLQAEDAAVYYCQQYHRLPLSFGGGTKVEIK

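The parent was found by panning a naive human phage display library on the peptide. The variants were designed computationally from a first round of random CDR variants and then made and measured. Several design methods are mixed in this list. The assay is AlphaSeq: two haploid yeast populations carry antibody and antigen on their surface. Mating (16 h, 30 °C) was followed by selection of diploids and sequencing of their barcodes. Read counts were normalised to the haploid input and turned into Kd by a linear fit to BCL2-family pairs of known affinity, for each replicate. The assay was run in six technical replicates.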

Each variant is given by its three light chain CDRs, as the data file delimits them; those of the parent are KSSQSVLYESRNKNSVA, WASTRES, QQYHRLPLS. Numbers give log10(Kd / nM), so 0 is 1 nM and 3 is 1 µM. Smaller is tighter. Replicates are averaged; those with no signal do not enter the mean. "ND" means that the variant was in the library but no mating with the target was seen in that replicate; the authors take this as a sign of poor binding, and no number exists. The range of this assay differs from that of the first round, and the authors advise against merging the two. The authors averaged sequences with at least three values out of six and counted those with two or fewer as poor binders. As a blank, each scFv also met three strains without target: over all light chain designs, 4% of these pairings were detected, typically at 2.64 and seldom below 1.59.

CDR-L1,CDR-L2,CDR-L3,"replicates, log10 nM",mean log10 Kd (nM)
KLSVSWLFETIEKNSVA,ERSTRES,QDYNRLPLS,ND 1.86 ND 1.81 1.45 2.25,1.84
NIQDNLGGLLSQKNSVA,STEEKSD,QSYHRLPLS,0.57 0.34 -0.33 -0.31 0.08 -0.11,0.04
HITSNMFGTGGVTSNVA,ETNTLMV,QQYSKLPLM,0.40 0.03 0.57 0.25 -0.09 0.03,0.20
HLSDTVMQGSYYKSSVA,QESTRAD,QQYHRLPLS,ND ND ND ND 1.40 ND,1.40
KLYEMVASTMMNIRNVA,DNSTREY,QQYNRLPLS,ND ND ND 1.42 ND ND,1.42
KIGMTLNQLMQKKNNVA,DLVTRET,QQYHRLPLS,0.27 0.76 -0.30 0.15 -0.03 0.50,0.23
KLSQSWLYESRAKNSVA,NASTRES,QQYHRLPLS,-0.43 -0.16 -0.15 -0.64 0.02 -0.22,-0.26
KVSQSCLYESRNKNSVA,NASTRES,QQYHRLPLS,0.00 0.53 0.52 0.25 -0.03 0.52,0.30
KVRQSTLYQSRNKNSVA,GASTRES,QQYHRLPLS,1.72 1.37 1.32 1.34 2.53 2.08,1.73
KLSQSMLYESRNKNSVA,DASTRES,QQYHRLPLS,-0.20 -0.55 -0.59 -0.73 -0.52 -0.42,-0.50
KSSQSKIYYSRNKNSVA,GAQTRES,QQYHRLPLS,ND ND ND 1.80 2.28 ND,2.04
KFSQSWLYESMNKNSVA,DASTRES,QQYHRLPLS,0.20 -0.07 0.36 -0.36 0.00 0.19,0.05
MLTMFNNENQGWSNNIA,DTNNLNE,QQYSRLPFM,1.00 0.85 0.76 1.48 1.11 1.15,1.06
KLSQSMEYEDRNSNSVA,HASTREQ,QQYHRLPLM,0.35 0.12 0.07 0.08 0.22 0.30,0.19
HSSPSWLYDSRNKNHVA,DAMTRES,QQYHRLPLS,-0.38 0.30 -0.37 -0.29 -0.31 -0.11,-0.19
QIYQAMHNLMQKKNNVA,DVNERGQ,QQYFRLPLS,-0.02 0.17 -0.08 0.18 0.02 0.21,0.08
KSSQSLLYESRNKVSVA,KASTRES,QQYHRLPLS,2.47 2.23 2.26 2.04 1.07 2.07,2.02
KSSKSVLFESRNKNSVA,CASTRES,QQYHQLPLR,ND ND 1.88 ND ND ND,1.88
MIYETMDYAMRKQNSIA,DNQTRED,QQYAHLPLS,1.72 1.75 3.79 1.78 1.28 2.01,2.06
MLSEVLHMLGVKKNSIA,DLVIRAN,QQYHRLPLA,1.88 0.95 0.95 1.19 1.66 1.27,1.32
KLVQFMNRGTHHTSNIA,DAQNRND,QQYARLPLA,0.69 0.57 0.62 0.61 0.62 0.72,0.64
KQSQSVPMGERNKNSVA,MASYRLS,QQYHRLPLS,1.29 2.34 2.42 1.49 1.80 2.42,1.96
KRSKSVLHESRNKNSVA,RLSTRFS,QQYHRLPLS,ND ND ND ND ND ND,ND
HITYGMMVVGRHSKSIA,QAETRAK,QQYDRLPLA,0.93 1.03 0.68 0.97 2.06 1.55,1.20
ALGTSTLEETRNKNSVA,EVSERES,QSYNRLPLS,1.06 1.46 0.39 0.68 0.69 0.55,0.81
KSSQSDLYESRNGNSVA,NGSTRED,QQYHRLPLS,0.23 0.46 0.26 0.11 0.28 0.03,0.23
MISQVMNTLTRHGNNVA,DLQEREE,QQYFRLPLS,1.07 0.76 1.60 1.97 0.83 1.46,1.28
KLSQSWLYESRNKNSVA,GVSTRES,QQYHRLPLS,-0.10 -0.31 -0.38 -0.36 -0.19 -0.12,-0.24
KLSQQNEYESRMMNSVA,MASQRES,QQYHRLPLS,1.70 0.86 1.34 3.62 1.52 1.00,1.67
MMSSVLHMLGAKKNSIA,DNQLRAD,QQYHRLPLM,0.21 0.15 0.32 0.27 0.18 0.22,0.23
KLSMVTGHMKMAKNNVA,EMVTREE,QQYDRLPLS,ND ND ND ND ND 1.93,1.93
KLSMLWLMLSRNHNSVA,SASTRES,QQYHRLPLS,3.00 1.18 ND 1.08 1.29 2.62,1.84
KSSQSWPYESRNKNSVA,GASTRES,QQYHRLPLS,0.57 0.22 -0.12 0.08 0.34 0.31,0.23
KVDISATVQGMHKSGVA,EHDMRVG,QQYFRLPLA,0.37 0.15 0.53 0.27 0.49 0.43,0.37
KLKQSVLYESRNKNSVA,NASTRCS,QQYHRLPLS,-0.10 -0.43 -0.26 -0.37 -0.44 0.04,-0.26
KSSQSVLYESRNKNSVA,FASTRES,QQYHRLPLA,2.18 ND ND ND ND ND,2.18
TSSQSVLYESRNKNSVA,NASTRES,QQYHRLPLS,0.83 0.53 0.54 0.50 0.58 0.74,0.62
KWEQGVLYESRNKNSVA,GASVRES,QQYHRLPLS,0.07 -0.14 -0.17 -0.11 0.18 -0.24,-0.07
MVTQMAMTGMGNKRSVA,NAETREY,QQYHRLPLI,0.62 0.80 0.70 0.91 0.82 0.62,0.74
KLSMTTEQEHVNRNSVA,ELVTRIS,QQYNRLPLS,1.28 1.38 1.66 1.33 ND ND,1.41
KSSQSVLYEPRNKNSVA,DASTRES,QQYHRLPLS,0.17 -0.09 -0.10 -0.12 -0.07 0.12,-0.02

Top 7 of the variants detected in all replicates, tightest first:

CDR-L1	CDR-L2	CDR-L3	replicates, log10 nM	mean log10 Kd (nM)
KLSQSMLYESRNKNSVA	DASTRES	QQYHRLPLS	-0.20 -0.55 -0.59 -0.73 -0.52 -0.42	-0.50
KLSQSWLYESRAKNSVA	NASTRES	QQYHRLPLS	-0.43 -0.16 -0.15 -0.64 0.02 -0.22	-0.26
KLKQSVLYESRNKNSVA	NASTRCS	QQYHRLPLS	-0.10 -0.43 -0.26 -0.37 -0.44 0.04	-0.26
KLSQSWLYESRNKNSVA	GVSTRES	QQYHRLPLS	-0.10 -0.31 -0.38 -0.36 -0.19 -0.12	-0.24
HSSPSWLYDSRNKNHVA	DAMTRES	QQYHRLPLS	-0.38 0.30 -0.37 -0.29 -0.31 -0.11	-0.19
KWEQGVLYESRNKNSVA	GASVRES	QQYHRLPLS	0.07 -0.14 -0.17 -0.11 0.18 -0.24	-0.07
KSSQSVLYEPRNKNSVA	DASTRES	QQYHRLPLS	0.17 -0.09 -0.10 -0.12 -0.07 0.12	-0.02